Results published in US20020061599A1, “Method of identifying ligands of biological target molecules” (priority 1999, published 2002).

Target: T1, [F289C;N312C] beta2-AR (Homo sapiens, UniProt P07550, F289C/N312C)
T1 construct: expressed in transfected cells; host or cells: COS-7
Experiment: cAMP accumulation in COS-7 cells expressing metal-ion site engineered beta2-adrenergic receptor
Format: cell-based
Conditions: copper-chelator complex, read-out: EC50, stimulation of cAMP accumulation
Method: The effect of Cu(II) and copper-chelator complexes on stimulation of accumulation of intracellular cAMP was analyzed in COS-7 cells expressing the beta2-adrenoceptor.
Methods—Mutations were created in the beta2-AR cDNA by the PCR-directed overlap-extension method (Ho et al. (1989) Gene 77; 51-59). The beta2-AR cDNA was expressed by transient transfection into COS-7 cells. Two days after transfection the cells were assayed for intracellular levels of basal and ligand-induced cyclic AMP. The assay employed is essentially as described in Solomon et al (Anal. Biochem. (1974) 58: 541). Labelled adenine (2 ?Ci, [^3H]adenine, Amersham TRK311) was added to cells seeded in 6-well culture dishes. The following day the cells were washed twice wit HBS buffer [25 mM Hepes, 0.75 mM NaH2PO4, 140 mM NaCl (pH 7.2)] and incubated in buffer supplemented with 1 mM 3-isobutyl-1-methylxanthine (Sigma I-5879). Agonists were added and the cells were incubated for 30 min at 37° C. The assay was terminated by placing the cells on ice and aspiration of the buffer followed by addition of ice-cold 5% trichloroacetic acid containing 0.1 mM unlabelled camp (Sigma A-9062) and ATP (Sigma A-9501). Cyclic AMP was then isolated by application of the supernatant to a 50W-X4 resin (BioRad) and subsequently an alumina resin (A-9003; Sigma) eluting the cyclic AMP with 0.1 M imidazole (Sigma I-0125). […]

EC50: 470 nM
Substance: 2,2′-di(benzimidazol-2-yl)-quinoline) [compound 85]
